The values that follow come from patent publication US20190070174A1, “METHODS OF TREATING NEURODEGENERATIVE DISEASES” (priority 2016, published 2019).

This experiment concerns Drd2 transcripts. Briefly: Subchronic treatment of Q84 mice, quantitative RT-PCR. The experiment is classed as in vivo, mouse. The conditions noted are these: brainstem of Q84 mice. As to the method:
YACMJD84.2 transgenic mice were housed in cages with a maximum number of five animals and maintained in a standard 12-hour light/dark cycle with food and water ad libitum. Genotyping was performed using DNA isolated from tail biopsy at the time of weaning, and genotypes of all studied mice were confirmed using DNA extracted from tails collected post-mortem. […] Five hours after the final injection, mice were anesthetized with ketamine/xylazine and perfused transcardially with phosphate buffered saline (PBS) (for RNA and protein studies), and brains were immediately placed on dry ice and stored at −80° C.
Reverse transcription of 1.5 μg of total RNA per sample was performed using the iScript cDNA synthesis kit (Bio-RAD). Human ATXN3 and mouse Atxn3, Drd2, 5HT1A, 5HT2A and Gapdh (housekeeping) transcript levels were accessed by quantitative real-time PCR. Relative gene expression was determined using the ΔΔCT method, normalizing for Gapdh mRNA levels.

Take `O=C1CCc2ccc(OCCCCN3CCN(c4cccc(Cl)c4Cl)CC3)cc2N1` [aripiprazole]: the Drd2 transcripts entry is listed as “increasing”.
